Target: T1, Dihydroorotate dehydrogenase (Plasmodium falciparum, UniProt Q54A96)
T1 sequence (Q54A96 whole entry): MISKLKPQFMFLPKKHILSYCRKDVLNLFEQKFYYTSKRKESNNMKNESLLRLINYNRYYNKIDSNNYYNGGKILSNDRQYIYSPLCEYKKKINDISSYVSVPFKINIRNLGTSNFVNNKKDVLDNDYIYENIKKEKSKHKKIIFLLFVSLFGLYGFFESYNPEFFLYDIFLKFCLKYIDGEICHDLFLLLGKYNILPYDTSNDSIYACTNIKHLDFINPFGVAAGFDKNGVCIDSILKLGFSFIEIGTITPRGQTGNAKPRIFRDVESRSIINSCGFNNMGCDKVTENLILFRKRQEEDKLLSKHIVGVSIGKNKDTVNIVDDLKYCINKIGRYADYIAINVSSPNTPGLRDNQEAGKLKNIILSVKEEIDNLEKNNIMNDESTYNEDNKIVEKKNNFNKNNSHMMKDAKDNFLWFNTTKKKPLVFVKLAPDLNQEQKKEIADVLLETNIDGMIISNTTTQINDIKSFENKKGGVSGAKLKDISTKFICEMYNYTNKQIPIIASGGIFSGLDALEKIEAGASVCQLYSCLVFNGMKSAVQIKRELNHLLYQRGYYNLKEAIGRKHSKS
Experiment: Inhibition of Plasmodium falciparum DHODH using dihydroorotate substrate by DCIP assay

SMILES: Cc1cc(Nc2ccc3ccccc3c2)n2ncnc2n1
- IC50: 25 nM

Reference: ChEMBL document CHEMBL3407421, “Design, synthesis, X-ray crystallographic analysis, and biological evaluation of thiazole derivatives as potent and selective inhibitors of human dihydroorotate dehydrogenase” (J Med Chem, 2015)
